This is a selection; strong and weak results do not stand in their true shares. Activity calls are given as the source filed them.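 How the source made its calls: active means primary screen active, with duplicate mean activation above negative control mean plus 3 SD (cut at about 11% in these data); inactive means the rest.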

Amino acid sequences for entries named in this document (tags omitted). A change or cut given only in a name is not applied to a line headed by its entry.
UniProt Q9GZV3: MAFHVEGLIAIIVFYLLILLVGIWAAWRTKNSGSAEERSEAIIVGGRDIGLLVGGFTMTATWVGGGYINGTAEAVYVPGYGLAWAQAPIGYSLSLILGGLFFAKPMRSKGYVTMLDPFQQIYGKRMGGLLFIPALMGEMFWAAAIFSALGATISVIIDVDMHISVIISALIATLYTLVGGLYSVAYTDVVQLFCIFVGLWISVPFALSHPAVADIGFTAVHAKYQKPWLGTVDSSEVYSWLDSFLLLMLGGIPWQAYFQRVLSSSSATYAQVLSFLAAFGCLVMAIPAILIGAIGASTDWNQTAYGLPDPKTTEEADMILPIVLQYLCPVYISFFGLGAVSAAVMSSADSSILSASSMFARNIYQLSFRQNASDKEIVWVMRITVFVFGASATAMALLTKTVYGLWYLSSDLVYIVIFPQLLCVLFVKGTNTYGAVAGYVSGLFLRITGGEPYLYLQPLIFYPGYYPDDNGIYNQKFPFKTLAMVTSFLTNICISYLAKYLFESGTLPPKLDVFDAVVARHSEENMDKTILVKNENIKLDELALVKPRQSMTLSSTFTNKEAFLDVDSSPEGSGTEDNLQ

The assay addresses High affinity choline transporter 1 (Homo sapiens) (UniProt Q9GZV3). In words: human choline transporter potentiators – cell-based, membrane potential dye, duplicate, confirmation (AID 504833). Particulars: CHT-expressing cells, membrane potential dye fluorescence (FDSS); at 10 µM; active compounds read high; % of choline EC20–EC90 response window; HEK293 expressing CHT LV-AA mutant; choline added at its EC20.
With `CCC1=CC2Cc3nc4ccc(Cl)cc4c(N)c3C(C1)C2` (configuration not stated), the activation was active: 42.8%.
Under `CC1CCC(C(C)C)C(OP(=O)(Nc2ccccn2)c2ccccc2)C1` (configuration not stated) stands active: 30.2%.

The record behind these values is PubChem BioAssay AID504833 (Johns Hopkins Ion Channel Center, 2011).
